Test results from PMC7221417 (European journal of medicinal chemistry, 2020).

Test system: H295R cells (adrenocortical carcinoma)
Test: Sulforhodamine B
Conditions: 1 μM, incubated for 1.5 h

Substance: RuCp(PPh3)2(ATZ)BF4 [Complex 2]
- cytotoxicity in H295R cells on short incubation: slightly cytotoxic
